# Laboratory results: US10793631B2, “Human PAC1 antibodies” (AMGEN INC., priority 2013, dated 2020)
# Sequences of proteins named here, by UniProt entry; tags and fusion partners are left off. Residues count along the entry.
# UniProt P32241, 31-457: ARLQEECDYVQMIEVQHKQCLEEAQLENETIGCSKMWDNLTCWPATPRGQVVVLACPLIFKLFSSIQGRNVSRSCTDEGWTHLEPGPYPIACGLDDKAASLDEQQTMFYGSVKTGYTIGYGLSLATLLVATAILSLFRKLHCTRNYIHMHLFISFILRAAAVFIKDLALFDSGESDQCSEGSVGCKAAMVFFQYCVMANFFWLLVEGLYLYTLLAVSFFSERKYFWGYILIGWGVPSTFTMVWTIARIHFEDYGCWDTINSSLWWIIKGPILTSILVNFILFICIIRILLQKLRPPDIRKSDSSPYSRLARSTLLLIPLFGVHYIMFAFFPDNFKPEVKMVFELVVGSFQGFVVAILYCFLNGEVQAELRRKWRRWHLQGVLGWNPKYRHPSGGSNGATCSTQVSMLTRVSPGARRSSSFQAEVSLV
# Tests used:
# VPAC2 = target: T1, VPAC2 (Homo sapiens, UniProt P41587); test: Activity and selectivity of PAC1 agonists on VPAC2; format: cell-based; details: relative to PAC1
# T1 sequence (P41587 24-438): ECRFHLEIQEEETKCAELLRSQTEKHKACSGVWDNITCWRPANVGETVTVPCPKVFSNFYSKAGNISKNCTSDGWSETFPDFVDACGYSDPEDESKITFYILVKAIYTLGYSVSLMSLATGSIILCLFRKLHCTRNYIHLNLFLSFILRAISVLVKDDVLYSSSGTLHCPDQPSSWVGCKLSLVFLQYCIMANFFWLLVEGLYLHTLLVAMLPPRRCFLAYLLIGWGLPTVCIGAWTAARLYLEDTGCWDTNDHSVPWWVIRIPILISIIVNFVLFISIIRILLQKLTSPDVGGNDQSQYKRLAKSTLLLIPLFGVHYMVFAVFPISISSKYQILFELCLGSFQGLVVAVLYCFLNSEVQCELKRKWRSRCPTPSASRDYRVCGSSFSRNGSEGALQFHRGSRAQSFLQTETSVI
# VPAC1 = VPAC1 (Homo sapiens, UniProt P32241); test: Activity and selectivity of PAC1 agonists on VPAC1; format: cell-based; details: relative to PAC1
smiles,measurement,setting,value
"CC[C@H](C)[C@H](NC(=O)[C@H](CO)NC(=O)[C@H](CC(N)=O)NC(=O)[C@H](CC(C)C)NC(=O)[C@H](Cc1ccc(O)cc1)NC(=O)[C@H](CCCCN)NC(=O)[C@H](CCCCN)NC(=O)[C@@H](NC(=O)[C@H](C)NC(=O)[C@H](CCSC)NC(=O)[C@H](CCC(N)=O)NC(=O)[C@H](CCCCN)NC(=O)[C@H](CCCNC(=N)N)NC(=O)[C@H](CC(C)C)NC(=O)[C@H](CCCNC(=N)N)NC(=O)[C@@H](NC(=O)[C@H](Cc1ccc(O)cc1)NC(=O)[C@H](CC(N)=O)NC(=O)[C@H](CC(=O)O)NC(=O)[C@@H](NC(=O)[C@H](Cc1ccccc1)NC(=O)[C@@H](NC(=O)[C@H](C)NC(=O)[C@H](CC(=O)O)NC(=O)[C@H](CO)NC(=O)[C@@H](N)Cc1c[nH]cn1)C(C)C)[C@@H](C)O)[C@@H](C)O)C(C)C)C(=O)N[C@@H](CC(C)C)C(=O)N[C@@H](CC(N)=O)C(N)=O [VIP, vasoactive intestinal polypeptide]",higher activity on VPAC2 than on PAC1,VPAC2,10-100 ×
same,higher activity on VPAC1 than on PAC1,VPAC1,10-100 ×
